Literature values, collected in patent publication US4337760A, “Method for the treatment of tumors with β-glucuronidase activity dependent pharmaceuticals” (Schwimmer; Adolf, priority 1979, dated 1982).

How the values were obtained:
trophoblastic cells = settings: reported; cited from earlier work
[1] = in vivo; cited from earlier work
[2] = cited from earlier work

## estrogen
Trophoblastic cells
  β-glucuronidase activity in trophoblastic cells: induce β-glucuronidase activity

## phenylsulfazole-β-D-glucuronic acid
[1]
  migration to the thyroid gland: does not migrate to the thyroid gland

## phenylsulfazole
[2]; aglycone of the glucuronide of phenylsulfazole
  solubility in water: not soluble in water

## Cc1cc([N+](=O)[O-])cc([N+](=O)[O-])c1O
[2]; alkaline vs acid pH
  pH-dependent solubility: water soluble at alkaline pH's and lipid-soluble at acid pH's
